Literature values in patent US10596221B2, “Controlled-release fertilizer comprising oxidized glutathione” (Kaneka Corporation, priority 2015, dated 2020).

Details: salt prepared under a specific heating condition

## Ammonium salt of oxidized glutathione [ammonium salt of GSSG]
  deliquescence: low
  water solubility: high
